The chains behind the UniProt entries cited, without tags or fusion partners. Residues count along the entry.
UniProt P08709, 61-212 limits assumed: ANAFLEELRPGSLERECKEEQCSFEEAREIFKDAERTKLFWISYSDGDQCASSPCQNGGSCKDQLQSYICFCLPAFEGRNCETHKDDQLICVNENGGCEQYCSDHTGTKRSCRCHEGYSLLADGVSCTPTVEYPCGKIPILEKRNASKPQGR
UniProt P08709, 213-466 limits assumed: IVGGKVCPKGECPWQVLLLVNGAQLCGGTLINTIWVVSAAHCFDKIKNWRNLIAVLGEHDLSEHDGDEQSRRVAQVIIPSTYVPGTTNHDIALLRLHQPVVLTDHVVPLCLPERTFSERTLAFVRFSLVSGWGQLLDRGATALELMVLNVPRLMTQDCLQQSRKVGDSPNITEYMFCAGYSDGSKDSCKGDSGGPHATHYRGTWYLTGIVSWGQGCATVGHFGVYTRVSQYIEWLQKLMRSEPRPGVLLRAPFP

According to patent US6660885B2, “Polycyclic aryl and heteroaryl substituted benzenes useful for selective inhibition of the coagulation cascade” (Pharmacia Corporation, priority 2000, dated 2003):

Biological target: T1, recombinant soluble tissue factor and recombinant human factor VIIa (TF-VIIa) (Homo sapiens, UniProt P08709)
T1 construct: purchased American Diagnostica, Greenwich Conn; soluble TF made in house in E. coli
Test: TF-VIIa Assay (chromogenic substrate hydrolysis, 405 nm)
Format: biochemical
Conditions: read-out: IF-VIIA IC50

CC(C)Nc1ccc(-c2cccc(N)c2)c(CC(=O)NCc2ccc(C(=N)N)cc2)c1F [Example 21] was tested, and the IC50 was 340 nM.
